Source: patent US20260242465A1 (CELSIUS THERAPEUTICS, published 2026)

By UniProt entry, the sequences of proteins in these tests, tags left out. Residues count along the entry.
UniProt Q9NP99, 21-234 limits assumed: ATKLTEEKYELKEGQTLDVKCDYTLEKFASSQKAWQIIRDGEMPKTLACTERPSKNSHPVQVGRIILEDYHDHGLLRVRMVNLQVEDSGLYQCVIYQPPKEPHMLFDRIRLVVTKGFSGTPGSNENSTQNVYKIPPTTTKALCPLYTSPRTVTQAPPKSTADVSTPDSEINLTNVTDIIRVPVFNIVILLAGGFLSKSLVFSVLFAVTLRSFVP
UniProt Q9NP99, 21-205 limits assumed: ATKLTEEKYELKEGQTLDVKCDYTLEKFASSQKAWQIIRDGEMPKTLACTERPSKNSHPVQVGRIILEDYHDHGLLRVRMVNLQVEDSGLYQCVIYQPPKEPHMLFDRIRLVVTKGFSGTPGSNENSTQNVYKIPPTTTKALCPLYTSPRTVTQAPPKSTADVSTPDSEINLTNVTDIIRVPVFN

Experiments:
[1] = biological target: T1, human TREM1 on the cell surface (neutrophils, monocytes, transfected HEK293 cells) (human, UniProt Q9NP99 21-234); assay: cell-based or functional assay
[2] = biological target: T1, human TREM1 on the cell surface …; assay: flow cytometry, enriched human primary monocytes (CD45+/CD14+), AF647-labelled antibody, four donors per legend
[3] = biological target: T1, human TREM1 on the cell surface …; assay: flow cytometry, TREM1 receptor occupancy on enriched human monocytes activated with peptidoglycan (100 ng/ml) and PGLYRP1 (500 nM), 24 h
[4] = biological target: T1, human TREM1 on the cell surface …; assay: flow cytometry, enriched human primary neutrophils (CD45+/CD66abce+), AF647-labelled antibody, three donors
[5] = biological target: T2, recombinant monovalent cynomolgus monkey TREM1-ECD (cynomolgus monkey); assay: BLI; antibody on AHC sensor, monovalent TREM1-ECD in solution
T2 construct: whole entry named; also called cyno TREM1-ECD
T2 chain: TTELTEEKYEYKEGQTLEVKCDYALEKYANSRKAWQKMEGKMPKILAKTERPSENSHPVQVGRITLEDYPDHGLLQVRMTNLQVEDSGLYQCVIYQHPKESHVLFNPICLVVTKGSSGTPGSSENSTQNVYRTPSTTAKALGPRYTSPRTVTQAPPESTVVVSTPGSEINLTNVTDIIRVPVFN
Excerpt: (§1) Sensors were monitored to establish a baseline.
(§2) The coefficient of determination of the 1:1 model fit to the BLI sensorgrams is represented by the R\hat{ }2 value. Data for human and cynomolgus monkey represents averages across three replicates. Data for pig, dog, rabbit, rat, and mouse represents averages across two replicates.

[6] = biological target: T3, recombinant monovalent human TREM1-ECD (human, UniProt Q9NP99 21-205); assay: as above
T3 construct: the whole entry is named; also called monomeric human TREM1-ECD protein
Excerpt: as §1, §2

[7] = biological target: T1, human TREM1 on the cell surface …; assay: cell-based or functional assay; remark: listed apart in the source

- IC50, inhibition of CCL3 secretion by primary human neutrophils stimulated with PGN and PGLYRP1 [1]: 0.0223 nM
- IC50, inhibition of CCL4 secretion by primary human neutrophils stimulated with PGN and PGLYRP1 [1]: 0.0249 nM
- IC50, inhibition of IL-8 secretion by primary human neutrophils stimulated with PGN and PGLYRP1 [1]: 0.0223 nM
- EC50 (read off the curve) [2]: ~0.1 nM
- EC50 (read off the curve) [3]: ~0.04 nM
- EC50 (read off the curve) [4]: ~0.2 nM
- koff [5]: 0.00077 s⁻¹
- kon [5]: 392000 M⁻¹ s⁻¹
- Kd [6]: 0.21 nM
- Maximum BLI response [6]: 0.385 nm
- koff [6]: 9.2e-05 s⁻¹
- kon [6]: 421000 M⁻¹ s⁻¹
- IC50, inhibition of CCL3 secretion by primary human monocytes stimulated with PGN and PGLYRP1 [7]: 0.0215 nM
- IC50, inhibition of CCL4 secretion by primary human monocytes stimulated with PGN and PGLYRP1 [7]: 0.0689 nM
- IC50, inhibition of IL-1β secretion by primary human monocytes stimulated with PGN and PGLYRP1 [7]: 0.0188 nM
- IC50, inhibition of IL-6 secretion by primary human monocytes stimulated with PGN and PGLYRP1 [7]: 0.0244 nM
- IC50, inhibition of IL-23 secretion by primary human monocytes stimulated with PGN and PGLYRP1 [7]: 0.0155 nM
- IC50, inhibition of TNFα secretion by primary human monocytes stimulated with PGN and PGLYRP1 [7]: 0.0181 nM
B1: anti-TREM1 antibody agent clone A (antibody, human IgG1, kappa)
heavy: EVQLVESGGVLVQPGGSLRLSCAASGITFSNSWMSWVRQAPGKGLEWVANIKQDGSEKYYVDSVKGRFTISRDNAKESLFLQMNSLRAEDTAVYYCARGGISTFDIWGQGTMVTVSSASTKGPSVFPLAPSSKSTSGGTAALGCLVKDYFPEPVTVSWNSGALTSGVHTFPAVLQSSGLYSLSSVVTVPSSSLGTQTYICNVNHKPSNTKVDKKVEPKSCDKTHTCPPCPAPPVAGPSVFLFPPKPKDTLMISRTPEVTCVVVDVSHEDPEVKFNWYVDGVEVHNAKTKPREEQYNSTYRVVSVLTVLHQDWLNGKEYKCKVSNKALPAPIEKTISKAKGQPREPQVYTLPPSRDELTKNQVSLTCLVKGFYPSDIAVEWESNGQPENNYKTTPPVLDSDGSFFLYSKLTVDKSRWQQGNVFSCSVMHEALHNHYTQKSLSLSPGK
light: not shown
notes: heavy chain carries the IgG1 constant region with PVAdelG, light chain is kappa; also called anti-TREM1 clone A; Anti-TREM1 Antibody Clone A
